{
  "source": "patent US20070270350A1",
  "about": "“Methods and Compositions for the Prevention and Treatment of Inflammatory Diseases or Conditions” (MUSC FOUNDATION FOR RESEARCH DEVELOPMENT, priority 2003, published 2007)",
  "molecules": {"B1": {"name": "IFN-β: approved MS drug used for comparison (protein, UniProt P01574 22-187, looked up)", "Interferon beta": "MSYNLLGFLQRSSNFQCQKLLWQLNGRLEYCLKDRMNFDIPEEIKQLQQFQKEDAALTIYEMLQNIFAIFRQDSSSTGWNETIVENLLANVYHQINHLKTVLEEKLEKEDFTRGKLMSSLHLKRYYGRILHYLKAKEYSHCAWTIVRVEILRNFYFINRLTGYLRN"}},
  "experiment": "Comparison of biology of IFN-β, GA and statin + GSNO (Table 2)",
  "text": "FIGS. 28-52 provide additional data that show the effectiveness of statins in treating a variety of inflammatory diseases such as multiple sclerosis, spinal cord injury, stroke, and kinic acid induced seizures. Additionally, Table 2 provides data concerning the treatment of multiple sclerosis (MS) with statins as compared to two other approved MS drugs. The known drugs that were used were IFN-β and glatiramer acetate (GA) and their effects were compared with the combination of a statin+GSNO in a stroke model.",
  "data": [
    {"molecule": "B1", "values": [
      {"measurement": "Decrease expression of adhesion molecules", "result": "Yes"},
      {"measurement": "Decrease inflammatory cytokines", "result": "Yes"},
      {"measurement": "Decreased expression of MHCII", "result": "Yes"},
      {"measurement": "Excludes leukocytes from entering CNS", "result": "Yes"},
      {"measurement": "Inhibition of MMPs", "result": "Yes"},
      {"measurement": "Inhibition of chemokine expression", "result": "Yes"},
      {"measurement": "Inhibition of clonal expression of co-stimulatory molecules", "result": "Yes"},
      {"measurement": "Interferences with T-cell activation", "result": "Yes"},
      {"measurement": "Leukocyte trafficking across the blood brain barrier (BBB)", "result": "Yes"},
      {"measurement": "Neuroprotection", "result": "Not clear"},
      {"measurement": "Protection of BBB", "result": "Yes"},
      {"measurement": "Reduced level of co-stimulatory molecules", "result": "Yes"},
      {"measurement": "Th1 to Th2 deviation", "result": "Yes"}
    ]}
  ]
}
